From patent US20050106639A1, “Method for quantification of AKT protein expression” (Ventana Medical Systems, Inc., priority 2000, published 2005)

Tests used:
Type in all cases: cell-based
AKT-2 = assay: Immunoprecipitation and anti-phospho-Akt Western blot, AKT-2
Procedure: (§1) MDA-MB-435 and MDA-MB-435/HER-2 cells were obtained from Dr. Yu at the UTMD Anderson Cancer Center, Houston, Tex. Cells were grown in RPMI 1640 supplemented as above in 8% CO2 at 37° C. Western blotting was done as follows. Cells were lysed in lysis buffer (50 mM Tris-HCl, pH 7.4, 150 mM sodium chloride, 1 mM EDTA, 1% Nonidet P-40, 1 mM sodium orthovanadate, 1 mM sodium fluoride, 1 mM phenylmethylsulfonyl fluoride, 2 ug/ml pepstatin, 2 ug/ml leupeptin, 2 ug/ml aprotinin), centrifuged at 4° C. for 5 min at 6500 g, and protein concentration was determined with a BioRad Protein Assay Kit (BioRad, Hercules, Cailf.). Proteins were separated by electrophoresis using a Bis-Tris NuPAGE system with 1× MOPS running buffer (Novex, San Diego, Cailf.) and transferred to Hybond C-extra membrane (Amersham Pharmacia Biotech, Piscataway, N.J.). […] The MDA-MB-435/HER-2 cells over-express HER-2/neu 10-fold compared with the parental MDA-MB-435 cell line as determined by Western blot analysis. […]
(§2) The activated (phosphorylated) state of total AKT (AKT-1 plus AKT-2) in cells over-expressing HER-2/neu was measured to study the functional significance of c-akt in HER-2/neu over-expressing cells and cancers. […] Activated AKT was determined by antibodies that specifically recognize the phosphorylated state of AKT protein. […]

[1] = test system: total AKT (AKT-1 plus AKT-2); assay: Western blot of activated (phosphorylated) total AKT in HER-2/neu over-expressing cells; details: SKBR3, BR474, AU565 cells, Heregulin 10 ng/ml or Herceptin 20 mg/ml
Procedure: as §1, §2

AKT-1 = assay: Immunoprecipitation and anti-phospho-Akt Western blot, AKT-1
Procedure: as §1, §2

[2] = SKBR3, BR474, AU565 cells, Heregulin 10 ng/ml or Herceptin 20 mg/ml, Western blot

**Q.** For “Herceptin: monoclonal antibody against HER-2/neu”, which “level of AKT-2 phosphorylation after treatment” value (AKT-2; [2]) is on record?
**A.** remained high

**Q.** And the “phosphorylated state of AKT-2” value (AKT-2; exposure for 3 days)?
**A.** did not affect

**Q.** And the “phosphorylation of total AKT” value [1]?
**A.** decreased

**Q.** What about the AKT-1 phosphorylation (AKT-1; [2]) of the same substance?
**A.** decreased

**Q.** What about the “phosphorylated state of AKT-1” value (AKT-1; exposure for 3 days) of the same substance?
**A.** down-regulation
